Laboratory results taken from US12441754B2, “Galactoside inhibitor of galectins” (GALECTO BIOTECH AB, priority 2019, dated 2025).

By UniProt entry, the sequences of proteins in these tests, tags left out.
UniProt P09382, whole entry: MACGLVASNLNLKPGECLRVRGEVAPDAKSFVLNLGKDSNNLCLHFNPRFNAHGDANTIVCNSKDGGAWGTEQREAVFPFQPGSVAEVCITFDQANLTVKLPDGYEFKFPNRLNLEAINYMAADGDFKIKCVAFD
UniProt P17931, whole entry: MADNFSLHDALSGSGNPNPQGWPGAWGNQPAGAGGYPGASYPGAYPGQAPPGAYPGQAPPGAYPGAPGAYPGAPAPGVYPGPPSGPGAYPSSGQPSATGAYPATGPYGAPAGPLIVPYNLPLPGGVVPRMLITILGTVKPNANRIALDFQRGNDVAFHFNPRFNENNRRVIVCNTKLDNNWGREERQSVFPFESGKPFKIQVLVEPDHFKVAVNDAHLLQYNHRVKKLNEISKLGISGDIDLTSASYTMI

Experiments:
Galectin-1 = Galectin-1 (Homo sapiens, UniProt P09382); test: fluorescence anisotropy assay, compound as inhibitor of galectin / fluorescein tagged saccharide probe interaction; assay type: binding
Procedure: (§1) The affinity of Example 1-103 for galectins were determined by a fluorescence anisotropy assay where the compound was used as an inhibitor of the interaction between galectin and a fluorescein tagged saccharide probe as described Sörme, P., Kahl-Knutsson, B., Huflejt, M., Nilsson, U. J., and Leffler H. (2004) Fluorescence polarization as an analytical tool to evaluate galectin-ligand interactions. Anal. Biochem. 334: 36-47, (Sörme et al., 2004) and Monovalent interactions of Galectin-1 By Salomonsson, Emma; Larumbe, Amaia; Tejler, Johan; Tullberg, Erik; Rydberg, Hanna; Sundin, Anders; Khabut, Areej; Frejd, Torbjorn; Lobsanov, Yuri D.; Rini, James M.; et al, From Biochemistry (2010), 49(44), 9518-9532, (Salomonsson et al., 2010).

Galectin-3 = Galectin-3 (Homo sapiens, UniProt P17931); test: as above; assay type: binding
Procedure: as §1

Nc1nc(-c2cn([C@@H]3[C@@H](O)[C@@H](Sc4cc(Cl)c(F)c(Cl)c4)O[C@H](CO)[C@@H]3O)nn2)cs1 [Example 32, 3,5-Dichloro-4-fluorophenyl 3-[4-(2-aminothiazol-4-yl)-1H-1,2,3-triazol-1-yl]-3-deoxy-1-thio-α-D-galactopyranoside]
Kd (Galectin-1): 150 nM
Kd (Galectin-3): 5000 nM
